Drawing on ChEMBL document CHEMBL5038639, “Designed Peptide Inhibitors of STEP Phosphatase-GluA2 AMPA Receptor Interaction Enhance the Cognitive Performance in Rats” (J Med Chem, 2022), this text covers Activity for one compound.

Activity calls are given as the source filed them. No cut-off for these calls is given here.

The subject of assay [1] is Rattus norvegicus. The experiment in a line: Antidepressant activity in Wistar rat model of scopolamine-induced depressive like behavior assessed as decrease in immobility time at 1 mg/kg measured after 24 hrs by forced swimming test. Type of assay: functional, organism-based.
The subject of assay [2] is Rattus norvegicus. Put plainly: Antidepressant activity in Wistar rat model of scopolamine-induced depressive like behavior assessed as increased swimming time at 1 mg/kg measured after 24 hrs by forced swimming test. Type of assay: functional, organism-based.

On to `CN(C)CCCN1c2ccccc2CCc2ccccc21`, for which the outcome in assay [1] and in assay [2] was Active.
